Experimental data: patent US20240408175A1, “BMP9 OR AN AGONIST THEREOF AND ITS USES RELATED TO REDUCING METASTASIS OF CANCER” (THE UAB RESEARCH FOUNDATION, priority 2021, published 2024)

Columns and labels:
Format in all cases: cell-based, human
[1] = system: 1-kb SOX2 promoter reporter; assay: pGL3-SOX2 promoter-reporter luciferase assay in HEK293 cells; conditions: 10 nM, 24 hours, serum-free
Experimental: HEK293 cells were transfected with the pGL3-SOX2 promoter-luciferase reporter plasmid construct and SV40-renilla for 24h. Treatment with BMP2 or BMP9 or TGF-or Activin A was carried out for 24 hours in serum-free media at either 10 nM or 400 pM respectively. According to the manufacturer's instruction, cells were collected and lysed in […] passive lysis buffer. To measure luciferase activity, […] of lysate was added to […] of dual Luciferase Assay Reagent, and luminescence was quantitated using a luminometer (Biotek).

[2] = system: SOX2; assay: SOX2 expression by Western blot / qRT-PCR in cancer cells
Experimental: Lysate and RNA preparation: 100,000-300,000 cells were seeded in a poly-HEMA coated 6-well plate for indicated times in full serum unless indicated otherwise. Cells were collected by centrifugation and lysed with trizol for RNA extraction or direct 2× lysis buffer for protein lysates.
Xenograft data were analyzed using parametric statistics as described in the legends. Survival curves were analyzed with log-rank statistics. In vitro experiments were analyzed using parametric statistics (ANOVA global test with Dunnett's/Sidak multiple comparison test as post-hoc tests as applicable and described in legend) and presented as the mean±SEM. All real time PCR's are relative semi quantitative RT-PCR's (hereby referred to as qRT-PCR) and are a combined quantitation of a minimum of 3 independent biological trials assayed in triplicate with biological replicates represented as individual scatter dots in the graphs or as indicated in legends. In all cases, statistical significance was set at a threshold of p<0.05. All statistical analyses were conducted with GraphPad Prism Software Ver. 9.0 and specific statistical test information described in figure legends.

[3] = system: PA1 cells; assay: Sulforhodamine B (SRB) growth assay, attached 2D; conditions: 10 nM, 3 days
Experimental: Growth of cells was monitored by seeding 1,000 cells per well in a 96 well plate, followed by treatment with 10 nM BMP2/9 for indicated times. At endpoint, medium was shaken out from plates, followed by addition of cold 10% trichloroacetic acid in each well, and incubation at 4° C. for 10 minutes. Five sequential wash steps were performed by complete immersion in water and shake out of the water from the plate. Next, 0.4% sulforhodamine B (SRB) in 1% acetic acid was added to each well and incubated at room temperature for 10 minutes. Five washed were done by complete immersion in 1% acetic acid followed by complete removal of the remaining wash. Plates were air dried overnight. Finally, […] of 20 mM Tris pH 10 (unbuffered) was added to each well and plate rocked on a rotary shaker for 1-2 hours and absorbance measured at 570 nm with a plate reader (Vichai and Kirtikara, 2006).

[4] = system: OC cell lines (PA1, OVCA420, OVCAR3, SKOV3, OVCA433); assay: Live/Dead analysis under anchorage independence (anoikis), panel of OC cell lines; conditions: 10 nM for 24 hours after 48 hours anchorage independence
Experimental: For Live/Dead analysis under anchorage independence, 1,000 cells were seeded in 96-well hydrogel-coated ultra-low attachment (ULA) plates (Corning #4515) for times indicated. Growth factor treatment was done under low serum 2.5% FBS condition (Cells were plated in 10% FBS to allow spheroid formation before beginning treatment). Cells were then stained with 2 μM Calcein-AM and 4 μM Ethidium-homodimer for 30 min before imaging. z-stacked images were obtained using the Zeiss LSM700 Confocal microscope (Microscopy and Flow Cytometry Core, University of South Carolina) and NIKON A1 Confocal microscope (UAB High Resolution Imaging Facility). Fluorescent quantification was performed using ImageJ Fiji software to calculate the Corrected Total Cell Fluorescent (CTCF)=Integrated Density−(Area of selected cell×Mean fluorescence of background readings) per spheroid.

B1: BMP2: recombinant human BMP2, BMP ligand of the TGF-β family (protein, UniProt P12643 283-396, looked up)
Bone morphogenetic protein 2: QAKHKQRKRLKSSCKRHPLYVDFSDVGWNDWIVAPPGYHAFYCHGECPFPLADHLNSTNHAIVQTLVNSVNSKIPKACCVPTELSAISMLYLDENEKVVLKNYQDMVVEGCGCR
In the case of B1, the “luciferase activity of SOX2 promoter reporter” value [1] is reported as “significantly reduce”, the “SOX2 protein and RNA levels” value ([2]; 10 nM, 24 hours, PA1 (and OVCAR3) cells) is reported as “downregulation” and the “SOX2 expression in other cancer types” value ([2]; A549, BON-1, H727 cells, 24 hours) is reported as “downregulated”. For the same molecule, the “anchorage-independence-induced increases in SOX2” value ([2]; OVCAR4, OVCA420, OVCA433 cells, 3D) was “effectively suppressed”, the “dose-response of SOX2 protein” value ([2]; PA1 and OVCAR3, indicated doses, 24 h) was “dose-dependent repression” and the cell growth [3] was “did not alter”. For the same molecule, the “percentage of dead cells” value [4] was “increase”.
